Values of other authors, collected in patent US20140206737A1 (Beijing Zhongwei Shennong Chronic Disease Medical Research …, priority 2013, published 2014).

Settings: cited from earlier work

## Cl.Clc1cccc(Cl)c1NC1=NCCN1 [clonidine hydrochloride, 2-(2,6-Dichloroanilino)-2-imidazoline hydrochloride]
chloroform
  solubility in chloroform: very slightly soluble
ether
  solubility in ether: practically insoluble
Water or ethanol
  solubility in water or ethanol: soluble
